On the set-up of the data set: species or system rats. Particulars: rat, in vivo. From the text:
Leucine was used as the ligand and zinc as the metal. Composition A is therefore a mixture, or at best a complex consisting of one mole of leucine (mole weight 131.17) and one more of zinc chloride. […] Composition B consisted of two moles of leucine admixed with one mole of zinc chloride to form a mixture. Composition C was formed by reacting two moles of leucine with one mole of zinc to obtain a zinc-leucine amino acid chelate having a molecular weight of about 325.82. […] Composition A contained leucine equivalent to 10 microliters of 0.76M. leucine and was adjusted to pH 9 with 20 microliters of 0.05 N NaOH. Composition B contained leucine equivalent to 20 microliters of 0.76M. leucine containing 20 microliters distilled water in lieu of pH adjustment. The pH of this solution was about 3. Composition C contained the same ingredients as Composition B except in chelated form and the pH was adjusted to 9 with 20 microliters of 0.13M Na2 CO3. The procedure of Example lI was fo lowed using three rats in each group. Upon sacrificing, blood was drawn and certain tissues excised to determine the amount of radioactive zinc which had migrated to the blood and tissues two hours post injection.

Here are results for 1 molecule from US4863898A, “Amino acid chelated compositions for delivery to specific biological tissue sites” (priority 1986, dated 1989).

Structures are written as SMILES.

With `CC(C)C[C@H](N)C(=O)[O-].CC(C)C[C@H](N)C(=O)[O-].[Zn+2]` [Comp. C, zinc-leucine amino acid chelate], the “radioactive zinc in Brain” value is 2.41 cc/min/mg.
